What was measured:
[1] = molecular target: Complement factor H (human) (UniProt P08603); assay: SPR; CFH immobilised; uromodulin in HBS-EP solution buffer, each sample sonicated 5 min before injection to depolymerize; regeneration with 30 ul of 10 mM NaOH
[2] = molecular target: Complement factor H (human) (UniProt P08603); assay: SPR; Biacore 3000; CFH immobilised on CM5 chip (~600 RU) by amine coupling; running buffer HBS-EP pH 7.4; uromodulin diluted in ultrapure water, 1.25-20 uM, 30 ul/min; steady-state affinity; no regeneration

- Kd [1]: 0.133 nM
- Kd [2]: 4070 nM
Substance: Uromodulin (from UniProt P07911 25-614) (natural protein)

Reference: paper PMC5020621
